2 molecules from PubChem BioAssay AID588352 (The Scripps Research Institute Molecular Screening Center, 2011) can be followed below.

The chains behind the UniProt entries cited, without tags or fusion partners.
UniProt Q9Y6Q9, whole entry: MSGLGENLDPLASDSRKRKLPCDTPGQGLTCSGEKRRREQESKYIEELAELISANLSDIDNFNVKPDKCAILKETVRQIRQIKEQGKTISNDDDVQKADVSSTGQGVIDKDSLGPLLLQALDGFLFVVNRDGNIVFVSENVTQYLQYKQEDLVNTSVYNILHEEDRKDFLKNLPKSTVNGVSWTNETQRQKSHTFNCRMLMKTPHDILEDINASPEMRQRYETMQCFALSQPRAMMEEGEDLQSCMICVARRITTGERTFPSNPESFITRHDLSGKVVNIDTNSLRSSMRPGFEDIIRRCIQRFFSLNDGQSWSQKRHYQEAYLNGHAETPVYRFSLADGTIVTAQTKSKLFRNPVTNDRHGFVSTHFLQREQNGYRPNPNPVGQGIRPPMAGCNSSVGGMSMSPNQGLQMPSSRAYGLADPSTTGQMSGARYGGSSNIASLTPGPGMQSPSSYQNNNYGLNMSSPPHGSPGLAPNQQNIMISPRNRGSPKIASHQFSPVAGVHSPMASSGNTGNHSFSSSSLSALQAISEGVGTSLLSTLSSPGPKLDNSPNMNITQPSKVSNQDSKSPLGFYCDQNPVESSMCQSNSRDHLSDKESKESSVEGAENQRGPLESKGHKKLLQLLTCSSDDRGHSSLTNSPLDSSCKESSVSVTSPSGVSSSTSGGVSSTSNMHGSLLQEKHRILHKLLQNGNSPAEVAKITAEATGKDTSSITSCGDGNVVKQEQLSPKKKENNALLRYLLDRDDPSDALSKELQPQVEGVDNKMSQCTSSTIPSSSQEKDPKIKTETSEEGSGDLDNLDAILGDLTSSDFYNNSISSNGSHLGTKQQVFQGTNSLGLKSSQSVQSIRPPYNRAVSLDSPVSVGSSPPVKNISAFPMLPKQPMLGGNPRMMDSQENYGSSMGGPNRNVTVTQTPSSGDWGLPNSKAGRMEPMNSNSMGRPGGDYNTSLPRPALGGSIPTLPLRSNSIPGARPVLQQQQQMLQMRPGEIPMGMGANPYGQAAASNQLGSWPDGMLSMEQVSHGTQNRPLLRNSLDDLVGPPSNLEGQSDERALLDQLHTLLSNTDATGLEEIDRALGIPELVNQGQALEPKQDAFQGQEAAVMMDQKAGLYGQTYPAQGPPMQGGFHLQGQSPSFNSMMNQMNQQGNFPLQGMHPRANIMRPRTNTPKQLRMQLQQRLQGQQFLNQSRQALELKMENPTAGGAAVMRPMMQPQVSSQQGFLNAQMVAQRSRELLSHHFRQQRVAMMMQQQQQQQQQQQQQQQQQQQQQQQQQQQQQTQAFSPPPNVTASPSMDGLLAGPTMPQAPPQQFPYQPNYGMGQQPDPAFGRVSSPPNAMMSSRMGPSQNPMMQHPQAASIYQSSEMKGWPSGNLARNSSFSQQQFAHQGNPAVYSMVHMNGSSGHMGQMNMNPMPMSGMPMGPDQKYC

Structures are written as SMILES. The entries are a selection whose mix differs from that of the whole data set. Calls of active or inactive are those of the source.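 How the source made its calls: active means inhibition above a per-campaign cutoff, the mean of all compounds plus 3 SD (cut at about 60% in these data); inactive means the rest.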

This experiment deals with Nuclear receptor coactivator 3 (Homo sapiens) (UniProt Q9Y6Q9). The experiment in a line: SRC3 coactivator transcriptional activity inhibitors, primary screen, cell-based, luminescence (AID 588352).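 Further: 0% = DMSO-treated cells and 100% = gossypol-treated cells at 36 µM; higher means less SRC3-driven luciferase light from the GAL4 reporter.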 Particulars: HEK293 GAL4-SRC3 luciferase reporter, at 3.6 µM, hits give high values. (In general: Reporter assays use an easily measured gene product as a stand-in for the process of interest.)
Regarding `CCC(=O)N(c1ccccc1)C1(COC)CCN(CCc2cccs2)CC1`, the inhibition – broadly, the drop in the measured response relative to a control, in per cent – was inactive: 7.23%.
Take `CCC(=O)N(c1ccccc1)C1(COC)CCN(CCn2nnn(CC)c2=O)CC1`: the inhibition is inactive: -16.6%.
